Data taken from patent US20100311714A1, “1H-IMIDAZO[4,5-c]QUINOLINONE COMPOUNDS” (priority 2009, published 2010).

Chains of the proteins cited; added tags and fusions are not shown. Lines headed by an entry give the natural chain unless they say otherwise; changes in a name come on top. A line that says so, or that is headed by a name, gives the form on record, which may keep a tag or linker. Residues count along the entry.
UniProt P42336, whole entry, looked up: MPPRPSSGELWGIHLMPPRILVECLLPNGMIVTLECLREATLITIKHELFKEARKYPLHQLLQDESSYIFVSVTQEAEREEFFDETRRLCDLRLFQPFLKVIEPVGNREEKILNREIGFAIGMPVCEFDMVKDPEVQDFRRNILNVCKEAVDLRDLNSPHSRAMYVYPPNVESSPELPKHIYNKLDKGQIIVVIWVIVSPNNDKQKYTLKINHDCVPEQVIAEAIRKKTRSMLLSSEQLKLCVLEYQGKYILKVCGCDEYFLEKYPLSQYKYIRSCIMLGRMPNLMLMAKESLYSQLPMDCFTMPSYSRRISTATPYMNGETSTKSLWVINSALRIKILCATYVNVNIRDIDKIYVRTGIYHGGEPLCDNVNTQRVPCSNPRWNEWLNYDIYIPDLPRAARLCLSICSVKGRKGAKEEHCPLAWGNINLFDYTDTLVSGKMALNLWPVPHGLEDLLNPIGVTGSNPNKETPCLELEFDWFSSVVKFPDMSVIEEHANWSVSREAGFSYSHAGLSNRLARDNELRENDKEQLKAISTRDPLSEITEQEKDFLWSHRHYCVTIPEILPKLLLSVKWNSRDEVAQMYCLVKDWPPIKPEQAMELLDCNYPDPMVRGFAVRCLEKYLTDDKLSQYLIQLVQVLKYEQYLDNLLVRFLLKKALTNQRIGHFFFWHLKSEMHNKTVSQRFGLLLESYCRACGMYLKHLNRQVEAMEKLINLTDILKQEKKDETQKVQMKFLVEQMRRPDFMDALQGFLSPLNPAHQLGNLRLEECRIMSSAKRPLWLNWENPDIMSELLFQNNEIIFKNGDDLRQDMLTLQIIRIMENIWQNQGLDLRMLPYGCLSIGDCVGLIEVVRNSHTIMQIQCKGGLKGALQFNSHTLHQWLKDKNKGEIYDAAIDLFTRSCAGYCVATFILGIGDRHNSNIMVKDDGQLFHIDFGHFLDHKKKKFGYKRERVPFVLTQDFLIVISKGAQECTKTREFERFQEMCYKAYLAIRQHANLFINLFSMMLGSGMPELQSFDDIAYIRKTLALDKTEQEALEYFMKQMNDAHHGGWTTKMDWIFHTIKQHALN
UniProt P42338, whole entry, looked up: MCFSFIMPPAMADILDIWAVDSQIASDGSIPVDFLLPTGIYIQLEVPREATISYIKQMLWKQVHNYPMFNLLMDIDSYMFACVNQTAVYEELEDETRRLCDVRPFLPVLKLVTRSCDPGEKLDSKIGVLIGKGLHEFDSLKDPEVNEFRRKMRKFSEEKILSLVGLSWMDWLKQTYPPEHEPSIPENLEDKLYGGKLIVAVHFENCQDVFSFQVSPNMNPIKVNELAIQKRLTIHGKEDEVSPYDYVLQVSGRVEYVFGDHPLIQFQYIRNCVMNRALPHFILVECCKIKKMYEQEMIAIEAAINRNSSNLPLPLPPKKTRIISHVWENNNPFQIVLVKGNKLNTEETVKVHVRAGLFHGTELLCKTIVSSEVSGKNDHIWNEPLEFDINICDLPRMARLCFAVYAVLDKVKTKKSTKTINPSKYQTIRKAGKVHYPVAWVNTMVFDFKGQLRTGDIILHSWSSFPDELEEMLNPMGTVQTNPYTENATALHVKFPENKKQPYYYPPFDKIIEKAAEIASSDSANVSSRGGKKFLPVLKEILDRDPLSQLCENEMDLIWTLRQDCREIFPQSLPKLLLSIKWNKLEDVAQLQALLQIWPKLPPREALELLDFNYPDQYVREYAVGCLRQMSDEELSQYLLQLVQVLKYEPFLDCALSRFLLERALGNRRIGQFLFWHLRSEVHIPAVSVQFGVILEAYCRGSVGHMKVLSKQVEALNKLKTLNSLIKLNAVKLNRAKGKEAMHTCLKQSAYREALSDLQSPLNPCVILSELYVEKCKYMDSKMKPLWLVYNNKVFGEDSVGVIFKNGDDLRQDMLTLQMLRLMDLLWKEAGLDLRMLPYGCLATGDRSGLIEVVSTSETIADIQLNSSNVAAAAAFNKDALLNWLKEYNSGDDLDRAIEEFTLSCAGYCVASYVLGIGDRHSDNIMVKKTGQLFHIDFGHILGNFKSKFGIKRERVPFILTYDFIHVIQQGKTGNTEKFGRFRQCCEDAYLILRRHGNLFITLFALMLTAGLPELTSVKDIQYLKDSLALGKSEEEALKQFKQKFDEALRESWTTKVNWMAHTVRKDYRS
UniProt P42338, 2-1070 with tags or gaps limits assumed: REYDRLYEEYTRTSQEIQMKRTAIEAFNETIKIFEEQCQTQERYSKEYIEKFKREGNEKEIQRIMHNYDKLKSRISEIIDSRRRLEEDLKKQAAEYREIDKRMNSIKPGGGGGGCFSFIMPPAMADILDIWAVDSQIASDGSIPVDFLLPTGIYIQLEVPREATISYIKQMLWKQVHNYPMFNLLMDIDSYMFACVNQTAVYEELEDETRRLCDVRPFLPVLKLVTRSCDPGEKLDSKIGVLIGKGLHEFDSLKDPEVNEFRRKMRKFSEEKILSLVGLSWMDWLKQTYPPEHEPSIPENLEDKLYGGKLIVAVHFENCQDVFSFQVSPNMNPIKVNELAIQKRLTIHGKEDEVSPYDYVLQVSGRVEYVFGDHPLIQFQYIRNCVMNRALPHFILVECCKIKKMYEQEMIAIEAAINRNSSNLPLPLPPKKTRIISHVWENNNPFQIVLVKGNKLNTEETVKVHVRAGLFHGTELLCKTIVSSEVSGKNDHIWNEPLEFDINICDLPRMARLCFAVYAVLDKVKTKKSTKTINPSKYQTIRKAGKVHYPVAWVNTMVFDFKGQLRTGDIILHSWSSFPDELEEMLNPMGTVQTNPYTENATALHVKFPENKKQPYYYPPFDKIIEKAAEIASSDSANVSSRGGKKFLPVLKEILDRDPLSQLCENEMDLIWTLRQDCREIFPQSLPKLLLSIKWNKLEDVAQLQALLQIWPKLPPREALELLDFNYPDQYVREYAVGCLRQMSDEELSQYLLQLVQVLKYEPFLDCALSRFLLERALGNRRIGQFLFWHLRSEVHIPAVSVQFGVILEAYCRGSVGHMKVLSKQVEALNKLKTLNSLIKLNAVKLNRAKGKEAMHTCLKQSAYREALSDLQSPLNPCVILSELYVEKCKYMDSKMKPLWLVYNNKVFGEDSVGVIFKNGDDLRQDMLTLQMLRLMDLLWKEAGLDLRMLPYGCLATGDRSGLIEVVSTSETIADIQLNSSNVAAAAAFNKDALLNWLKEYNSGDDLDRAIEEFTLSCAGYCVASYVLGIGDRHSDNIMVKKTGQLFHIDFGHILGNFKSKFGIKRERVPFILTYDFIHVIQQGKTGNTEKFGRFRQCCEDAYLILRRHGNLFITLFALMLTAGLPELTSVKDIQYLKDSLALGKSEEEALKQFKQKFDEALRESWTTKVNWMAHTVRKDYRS
UniProt O00329, whole entry, looked up: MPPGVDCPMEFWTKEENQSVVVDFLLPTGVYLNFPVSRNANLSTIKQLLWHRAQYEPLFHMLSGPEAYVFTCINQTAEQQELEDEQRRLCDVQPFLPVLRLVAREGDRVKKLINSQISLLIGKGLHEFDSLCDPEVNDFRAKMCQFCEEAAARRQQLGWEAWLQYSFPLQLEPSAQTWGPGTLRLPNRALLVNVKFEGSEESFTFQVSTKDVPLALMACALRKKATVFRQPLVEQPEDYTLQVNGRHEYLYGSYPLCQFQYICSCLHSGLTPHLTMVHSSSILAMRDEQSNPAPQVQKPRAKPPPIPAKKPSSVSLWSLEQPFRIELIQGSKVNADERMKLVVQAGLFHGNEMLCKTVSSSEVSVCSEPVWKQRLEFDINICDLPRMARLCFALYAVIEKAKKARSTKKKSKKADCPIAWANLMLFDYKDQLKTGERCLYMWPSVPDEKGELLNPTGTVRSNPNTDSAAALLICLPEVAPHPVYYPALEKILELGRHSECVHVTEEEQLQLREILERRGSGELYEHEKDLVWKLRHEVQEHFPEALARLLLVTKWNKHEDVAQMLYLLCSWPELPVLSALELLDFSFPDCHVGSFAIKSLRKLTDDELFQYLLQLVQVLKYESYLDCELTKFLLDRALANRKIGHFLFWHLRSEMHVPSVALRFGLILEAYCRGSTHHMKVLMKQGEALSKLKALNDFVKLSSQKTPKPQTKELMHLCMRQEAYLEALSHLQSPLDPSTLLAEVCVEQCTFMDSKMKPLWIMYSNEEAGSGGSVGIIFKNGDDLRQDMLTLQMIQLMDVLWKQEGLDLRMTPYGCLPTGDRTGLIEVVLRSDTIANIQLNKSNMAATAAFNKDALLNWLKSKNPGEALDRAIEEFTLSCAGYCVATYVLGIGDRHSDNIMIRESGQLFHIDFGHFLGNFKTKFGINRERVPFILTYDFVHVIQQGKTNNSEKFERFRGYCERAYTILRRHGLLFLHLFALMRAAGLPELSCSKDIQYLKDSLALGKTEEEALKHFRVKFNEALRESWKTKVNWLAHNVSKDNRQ
UniProt O00329, 2-1044 with tags or gaps limits assumed: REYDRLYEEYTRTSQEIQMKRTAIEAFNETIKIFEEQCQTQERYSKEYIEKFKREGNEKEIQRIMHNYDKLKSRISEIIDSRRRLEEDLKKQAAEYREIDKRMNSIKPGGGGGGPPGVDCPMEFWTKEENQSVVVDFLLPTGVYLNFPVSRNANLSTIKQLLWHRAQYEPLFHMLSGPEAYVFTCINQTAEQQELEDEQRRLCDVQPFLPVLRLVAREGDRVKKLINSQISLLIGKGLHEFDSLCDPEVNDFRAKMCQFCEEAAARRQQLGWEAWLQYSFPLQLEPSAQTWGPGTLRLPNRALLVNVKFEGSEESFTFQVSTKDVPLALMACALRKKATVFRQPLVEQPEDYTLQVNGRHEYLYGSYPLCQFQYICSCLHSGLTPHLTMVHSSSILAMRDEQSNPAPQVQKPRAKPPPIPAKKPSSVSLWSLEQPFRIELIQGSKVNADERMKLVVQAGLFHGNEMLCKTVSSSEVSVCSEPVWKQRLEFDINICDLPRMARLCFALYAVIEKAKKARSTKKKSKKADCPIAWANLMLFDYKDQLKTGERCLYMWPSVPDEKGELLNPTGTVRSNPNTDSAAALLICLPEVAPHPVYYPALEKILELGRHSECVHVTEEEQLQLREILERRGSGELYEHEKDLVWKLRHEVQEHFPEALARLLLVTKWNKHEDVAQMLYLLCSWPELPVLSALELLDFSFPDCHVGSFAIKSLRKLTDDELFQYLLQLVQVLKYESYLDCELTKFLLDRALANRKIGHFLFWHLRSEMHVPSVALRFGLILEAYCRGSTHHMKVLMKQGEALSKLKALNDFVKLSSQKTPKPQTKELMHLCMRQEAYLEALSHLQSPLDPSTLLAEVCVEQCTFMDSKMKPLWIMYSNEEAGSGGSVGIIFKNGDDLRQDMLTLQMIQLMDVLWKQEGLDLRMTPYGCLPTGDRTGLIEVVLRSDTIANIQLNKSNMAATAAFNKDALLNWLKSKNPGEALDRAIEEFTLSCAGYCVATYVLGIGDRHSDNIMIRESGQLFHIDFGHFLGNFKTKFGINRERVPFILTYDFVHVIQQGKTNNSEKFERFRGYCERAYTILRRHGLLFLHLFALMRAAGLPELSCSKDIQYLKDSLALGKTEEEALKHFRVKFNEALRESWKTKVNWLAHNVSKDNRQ

Key:
PI3K alfa = PI3K alfa (Homo sapiens, UniProt P42336); experiment: PI3K alpha kinase assay (Kinase-Glo luminescence); details: read-out: EPK_PI3Kalfa/IC50
Description: (§1) In a more preferred assay, the kinase reaction is performed in a final volume of 10 μL per well of a low volume non binding CORNING, 384 well black plate (Cat. No. #3676). The final concentrations of ATP and phosphatidyl inositol (PI) in the assay are 1 μM and 10 μg/mL respectively. The reaction is started by the addition of ATP.
(§2) The components of the assay are added per well as follows: […]
(§3) IC50 is determined by a four parameter curve fitting routine that comes along with “excel fit”. […] Alternatively, IC50 values are calculated using idbsXLfit model 204, which is a 4 parameter logistic model.

PI3K beta = PI3K beta (Homo sapiens, UniProt P42338); experiment: PI3K beta kinase assay (Kinase-Glo luminescence); details: read-out: EPK_PI3Kbeta/IC50
Description: as §1, §2, §3

PI3K delta = PI3K delta (Homo sapiens, UniProt O00329); experiment: PI3K delta kinase assay (Kinase-Glo luminescence); details: read-out: EPK_PI3Kdelta/IC50
Description: as §1, §2
PI3K delta is purified in three chromatographic steps: immobilized metal affinity chromatography on a Ni Sepharose resin (GE Healthcare), gel filtration utilizing a Superdex 200 26/60 column (GE Healthcare), and finally a anion exchange step on a Q-HP column (GE Healthcare). […] Fractions are analyzed by Coomassie stained SDS-PAGE gels, and fractions containing the target protein are pooled and applied to a prepared GFC column. Fractions from the GFC column are analyzed by Coomassie stained SDS-PAGE gels, and fractions containing the target protein are pooled. […] The column is washed with low salt buffer until a stable A280 baseline absorbance is achieved, and eluted using a 20 column volume gradient from 0 mM NaCl to 500 mM NaCl. Again, fractions from the Q-HP column are analyzed by Coomassie stained SDS-PAGE gels, and fractions containing the target protein are pooled. […]

mTOR = mTOR (Homo sapiens, UniProt P42345); experiment: Biochemical assay for m-TOR by TR-FRET; details: read-out: EPK_mTOR/IC50
Description: Biochemical Assay for m-TOR by TR-FRET.
Assay components are purchased from Invitrogen Corporation (Carlsbad/Calif., USA): GFP-4EBP1 (Cat. No. PV4759), Tb3+-α-p4EBP1 [pThr46] Antibody (Cat. No. PV4757), proprietary TR-FRET dilution buffer (Cat. No. PV3574), mTOR protein (Cat. No. PV4753).
50 nL of compound dilutions (final concentration of 10, 3.0, 1.0, 0.3, 0.1, 0.03, 0.01 and 0.003 μM) are dispensed onto black 384-well low volume non-binding polystyrene (Cat. No. NBS#3676, Corning, Lowell/Mass., USA). Then 5 μL of ATP (8 μM final concentration) and GFP-4EBP1 (400 nM final concentration) with 5 μL mTOR proteins (0.5 nM final concentration) are incubated at rt. The standard reaction buffer for the TR-FRET mTOR assay contained 50 mM HEPES pH 7.5, 10 mM MnCl2, 50 mM NaCl, 1 mM EGTA, 1 mM DTT. Reactions were stopped with 10 μL of a mixture of EDTA containing the Tb3+-α-p4EBP1[pT46] detection Ab (0.5 nM) in TR-FRET dilution buffer (proprietary to IVG). Plates are read 15 mins later in a Synergy2 reader using an integration time of 0.2 seconds and a delay of 0.1 seconds. Control for the 100% inhibition of the kinase reaction is performed by replacing the mTOR kinase by the standard reaction buffer. The control for the 0% inhibition is given by the solvent vehicle of the compounds (90% DMSO in H2O). […]

[1] = target: PKB Ser473 phosphorylation in Rat1-myr-HA-p110 alpha cells (UniProt P42336); experiment: Reverse protein array, PKB Ser473 phosphorylation in Rat1-myr-HA-p110 alpha cells; details: read-out: p-PKB/IC50_alpha, 30 minutes compound incubation
Description: (§4) No. 15140-114) and 10 μg/ml Puromycine (Sigma, cat. No. P9620).
(§5) The Rat1-myr-HA-p110 alpha, beta and delta cells were trypsinized and counted with a CASY TT cell counter (Schärfe System GmbH, Reutlingen Germany). The cells were diluted in fresh DMEM complete medium and 3×10^4 cells/150 μl/well seeded in 96-well TPP-tissue culture plates (TPP, cat. No. 92096). The plates were incubated at 37° C. and 5% CO2 under humidified condition for at least 20 h. Compound of formula I working solutions were prepared freshly as serial 8 step dilutions (vol/vol) in DMSO on the day of the experiment. The working solutions were further diluted 1/500 in cell culture medium to get final compound concentrations of 10, 3.333, 1.111, 0.370, 0.123, 0.041, 0.014, 0.005 μM. […]
(§6) After the sample spotting and blocking procedure, the ZeptoMARK® chips were transferred to the ZeptoCARRIER (Zeptosens, cat. No. 1100), whose six flow cells individually address the six arrays on a chip, and washed twice with 200 μl CAB1 CeLyA assay buffer (Zeptosens, cat. No. 9032). […] The fluorescence of the target-bound Fab fragments is read out on the ZeptoReader (Zeptosens, Witterswil, Switzerland) using a laser (excitation wavelength 635 nm) and a CCD camera. The fluorescence signal was assessed with exposure times of 1, 3, 5 and 10 seconds, depending on the intensity of the signal. […]

[2] = target: PKB Ser473 phosphorylation in Rat1-myr-HA-p110 beta cells (UniProt P42338); experiment: Reverse protein array, PKB Ser473 phosphorylation in Rat1-myr-HA-p110 beta cells; details: read-out: p-PKB/IC50_beta, 30 minutes compound incubation
Description: as §4, §5, §6

[3] = target: PKB Ser473 phosphorylation in Rat1-myr-HA-p110 delta cells (UniProt O00329); experiment: Reverse protein array, PKB Ser473 phosphorylation in Rat1-myr-HA-p110 delta cells; details: read-out: p-PKB/IC50_delta, 30 minutes compound incubation
Description: as §4, §5, §6

In the case of `CCOc1ccc(-c2ccc3ncc4c(c3c2)n(-c2ccc(N3CCC3)nc2C)c(=O)n4C)cn1`, the IC50 (PI3K alfa) is reported as 385 nM, the IC50 (PI3K beta) is reported as greater than 9100 nM and the IC50 (PI3K delta) is reported as 772 nM. For the same compound, the IC50 (mTOR) was 423 nM, the IC50 [1] was 28.5 nM and the IC50 [2] was 98.4 nM. For the same compound, the IC50 [3] was 139 nM.
